# Read-outs that look alike come from different tables or passages of the source.
# What was measured:
# Caco-2 monolayers [1] = conditions: conventional 21-day Caco-2 monolayer, cited from earlier work
# rat jejunum = conditions: freshly excised rat jejunum, Ussing chamber model; cited from earlier work
# Caco-2 monolayers [2] = experiment: Polypeptide transport across 3-day Caco-2 monolayers (ELISA); type: in vitro ADME, Human; conditions: 3-day Caco-2, apical-to-basolateral, room temperature, mean±SD n = 3; for Apparent Permeability (Papp) / Cumulative permeation (amount transported to basolateral chamber): 5 h; for Apparent Permeability (Papp): gentle shaking
# Experimental: Transport of three different macromolecular pharmaceutical peptides was studied across the Caco-2 monolayers at different loading concentrations. […] Different doses were selected for different polypeptides based upon the values reported in literature to not only approach therapeutic efficacy but also to provide a valid comparison with the results obtained in 21-day monolayer system. Polypeptides were incubated with Caco-2 monolayers for 5 hrs at room temperature with gentle shaking. TEER measurements were performed and samples were collected from basolateral chambers of the Caco-2 plates to determine total drug transport and apparent permeability at different concentrations.
# [3] = apical loading 0.3 mg (Table 1)
substance,measurement,setting,value
Bovine Insulin,Apical-to-basolateral permeability,Caco-2 monolayers [1]; highest reported value,0.5±0.3 ×10^−6 cm/sec
same,Apical-to-basolateral permeability,Caco-2 monolayers [1]; lowest reported value,1.6±0.4 ×10^−9 cm/sec
same,Permeability through the rat intestinal mucosa,rat jejunum,7.4±1.2 ×10^−6 cm/sec
same,Apparent Permeability (Papp),Caco-2 monolayers [2]; apical loading 0.05 mg/well,5.4±2.9 10^−6 cm/s
same,Cumulative permeation (amount transported to basolateral chamber),Caco-2 monolayers [2]; apical loading 0.05 mg/well,1.5 ± 0.8 µg
same,% Transport in 5 hours,Caco-2 monolayers [2]; apical loading 0.05 mg/well,3.0±1.6%
same,Apparent Permeability (Papp),Caco-2 monolayers [2]; apical loading 0.15 mg/well,4.2±0.9 10^−6 cm/s
same,Cumulative permeation (amount transported to basolateral chamber),Caco-2 monolayers [2]; apical loading 0.15 mg/well,3.5 ± 0.7 µg
same,% Transport in 5 hours,Caco-2 monolayers [2]; apical loading 0.15 mg/well,2.3±0.5%
same,Apparent Permeability (Papp),Caco-2 monolayers [2]; [3],4.0±1.2 10^−6 cm/s
same,% Transport in 5 hours,Caco-2 monolayers [2]; [3],2.3±0.7%
same,Cumulative permeation (amount transported to basolateral chamber),Caco-2 monolayers [2]; apical loading 0.6 mg/well,13.5 ± 4.0 µg
same,Apparent Permeability (Papp),Caco-2 monolayers [2]; apical loading 1.0 mg/well,4.5±0.9 10^−6 cm/s
same,Cumulative permeation (amount transported to basolateral chamber),Caco-2 monolayers [2]; apical loading 1 mg/well,24.9 ± 5.0 µg
same,% Transport in 5 hours,Caco-2 monolayers [2]; apical loading 1.0 mg/well,2.5±0.5%

# — paper PMC3586668 (PLoS ONE, 2013)
